{"source": "ChEMBL document CHEMBL3885861", "about": "“Open TG-GATES”", "key": {"Rattus norvegicus [1]": {"organism": "Rattus norvegicus", "experiment": "Open TG-GATES - Regimen: Single", "format": "toxicity, organism-based, Sprague-Dawley", "set-up": "regimen Single, gender Male, age 6 weeks", "settings": "in vivo, po, route gavage; for A/G: tissue Plasma"}, "Rattus norvegicus [2]": {"organism": "Rattus norvegicus", "experiment": "Open TG-GATES - Regimen: Daily Repeat", "format": "toxicity, organism-based, Sprague-Dawley", "set-up": "regimen Daily Repeat, gender Male, age 6 weeks", "settings": "in vivo, po, route gavage; for A/G: tissue Plasma"}, "[3]": {"settings": "0 mg/kg, 3 h, dose level Control"}, "[4]": {"settings": "0 mg/kg, 6 h, dose level Control"}, "[5]": {"settings": "0 mg/kg, 9 h, dose level Control"}, "[6]": {"settings": "0 mg/kg, 24 h, dose level Control"}, "[7]": {"settings": "0 mg/kg, 72 h, tissue Blood, dose level Control, time 3 day"}, "[8]": {"settings": "0 mg/kg, […], tissue Blood, dose level Control, time 7 day"}, "[9]": {"settings": "300 mg/kg, 24 h, tissue Blood, dose level Middle"}, "[10]": {"settings": "1000 mg/kg, 24 h, tissue Blood, dose level High"}, "[11]": {"settings": "0 mg/kg, […], tissue Blood, dose level Control, time 28 day"}, "[12]": {"settings": "300 mg/kg, 72 h, tissue Blood, dose level Middle, time 3 day"}, "[13]": {"settings": "300 mg/kg, […], tissue Blood, dose level Middle, time 14 day"}, "[14]": {"settings": "300 mg/kg, […], tissue Blood, dose level Middle, time 28 day"}, "[15]": {"settings": "1000 mg/kg, […], tissue Blood, dose level High, time 14 day"}, "[16]": {"settings": "1000 mg/kg, […], tissue Blood, dose level High, time 28 day"}}}
{"molecule": "O=C(CCCN1CCC(O)(c2ccc(Cl)cc2)CC1)c1ccc(F)cc1", "note": "[HALOPERIDOL]", "values": [{"measurement": "A/G", "setting": "Rattus norvegicus [1]; [3]", "result": 2}, {"measurement": "A/G", "setting": "Rattus norvegicus [1]; [4]", "result": 2}, {"measurement": "A/G", "setting": "Rattus norvegicus [1]; [5]", "result": 2.3}, {"measurement": "A/G", "setting": "Rattus norvegicus [1]; [6]", "result": 1.9}, {"measurement": "PT", "setting": "Rattus norvegicus [1]; 3 mg/kg, 3 h, tissue Blood, dose level Low", "result": 12.5, "unit": "s"}, {"measurement": "A/G", "setting": "Rattus norvegicus [1]; 3 mg/kg, 3 h, dose level Low", "result": 1.8}, {"measurement": "A/G", "setting": "Rattus norvegicus [1]; 3 mg/kg, 6 h, dose level Low", "result": 1.9}, {"measurement": "PT", "setting": "Rattus norvegicus [1]; 3 mg/kg, 9 h, tissue Blood, dose level Low", "result": 12.5, "unit": "s"}, {"measurement": "A/G", "setting": "Rattus norvegicus [1]; 3 mg/kg, 9 h, dose level Low", "result": 1.9}, {"measurement": "A/G", "setting": "Rattus norvegicus [1]; 3 mg/kg, 24 h, dose level Low", "result": 1.8}, {"measurement": "A/G", "setting": "Rattus norvegicus [1]; 10 mg/kg, 3 h, dose level Middle", "result": 1.8}, {"measurement": "A/G", "setting": "Rattus norvegicus [1]; 10 mg/kg, 6 h, dose level Middle", "result": 1.9}, {"measurement": "A/G", "setting": "Rattus norvegicus [1]; 10 mg/kg, 9 h, dose level Middle", "result": 2}, {"measurement": "MCV", "setting": "Rattus norvegicus [1]; 10 mg/kg, 24 h, tissue Blood, dose level Middle", "result": 65.5, "unit": "fL"}, {"measurement": "A/G", "setting": "Rattus norvegicus [1]; 10 mg/kg, 24 h, dose level Middle", "result": 1.9}, {"measurement": "A/G", "setting": "Rattus norvegicus [1]; 30 mg/kg, 3 h, dose level High", "result": 1.9}, {"measurement": "A/G", "setting": "Rattus norvegicus [1]; 30 mg/kg, 6 h, dose level High", "result": 1.9}, {"measurement": "A/G", "setting": "Rattus norvegicus [1]; 30 mg/kg, 9 h, dose level High", "result": 2.3}, {"measurement": "A/G", "setting": "Rattus norvegicus [1]; 30 mg/kg, 24 h, dose level High", "result": 2.1}, {"measurement": "MCV", "setting": "Rattus norvegicus [2]; [7]", "result": 64.9, "unit": "fL"}, {"measurement": "A/G", "setting": "Rattus norvegicus [2]; 0 mg/kg, 72 h, dose level Control, time 3 day", "result": 2}, {"measurement": "WBC", "setting": "Rattus norvegicus [2]; [8]", "result": 82.7, "unit": "x10_2/uL"}, {"measurement": "A/G", "setting": "Rattus norvegicus [2]; 0 mg/kg, […], dose level Control, time 7 day", "result": 2}, {"measurement": "A/G", "setting": "Rattus norvegicus [2]; 0 mg/kg, […], dose level Control, time 14 day", "result": 1.7}, {"measurement": "A/G", "setting": "Rattus norvegicus [2]; 0 mg/kg, […], dose level Control, time 28 day", "result": 1.7}, {"measurement": "A/G", "setting": "Rattus norvegicus [2]; 3 mg/kg, 72 h, dose level Low, time 3 day", "result": 2}, {"measurement": "A/G", "setting": "Rattus norvegicus [2]; 3 mg/kg, […], dose level Low, time 7 day", "result": 1.9}, {"measurement": "A/G", "setting": "Rattus norvegicus [2]; 3 mg/kg, […], dose level Low, time 14 day", "result": 1.8}, {"measurement": "A/G", "setting": "Rattus norvegicus [2]; 3 mg/kg, […], dose level Low, time 28 day", "result": 1.6}, {"measurement": "A/G", "setting": "Rattus norvegicus [2]; 10 mg/kg, 72 h, dose level Middle, time 3 day", "result": 2.2}, {"measurement": "PT", "setting": "Rattus norvegicus [2]; 10 mg/kg, […], tissue Blood, dose level Middle, time 28 day", "result": 12.5, "unit": "s"}, {"measurement": "A/G", "setting": "Rattus norvegicus [2]; 10 mg/kg, […], dose level Middle, time 7 day", "result": 1.8}, {"measurement": "A/G", "setting": "Rattus norvegicus [2]; 10 mg/kg, […], dose level Middle, time 14 day", "result": 1.8}, {"measurement": "A/G", "setting": "Rattus norvegicus [2]; 10 mg/kg, […], dose level Middle, time 28 day", "result": 1.7}, {"measurement": "A/G", "setting": "Rattus norvegicus [2]; 30 mg/kg, 72 h, dose level High, time 3 day", "result": 2.4}, {"measurement": "A/G", "setting": "Rattus norvegicus [2]; 30 mg/kg, […], dose level High, time 7 day", "result": 2}, {"measurement": "A/G", "setting": "Rattus norvegicus [2]; 30 mg/kg, […], dose level High, time 14 day", "result": 1.8}, {"measurement": "A/G", "setting": "Rattus norvegicus [2]; 30 mg/kg, […], dose level High, time 28 day", "result": 1.7}]}
{"molecule": "O=C(O)c1cccnc1", "note": "[NIACIN]", "values": [{"measurement": "TERMINAL_BW", "setting": "Rattus norvegicus [1]; [3]", "result": 210.3, "unit": "g"}, {"measurement": "TERMINAL_BW", "setting": "Rattus norvegicus [1]; [4]", "result": 207.1, "unit": "g"}, {"measurement": "APTT", "setting": "Rattus norvegicus [1]; 0 mg/kg, 6 h, tissue Blood, dose level Control", "result": 21.8, "unit": "s"}, {"measurement": "TERMINAL_BW", "setting": "Rattus norvegicus [1]; [5]", "result": 212.6, "unit": "g"}, {"measurement": "APTT", "setting": "Rattus norvegicus [1]; 0 mg/kg, 9 h, tissue Blood, dose level Control", "result": 21.8, "unit": "s"}, {"measurement": "TERMINAL_BW", "setting": "Rattus norvegicus [1]; [6]", "result": 222.2, "unit": "g"}, {"measurement": "MCH", "setting": "Rattus norvegicus [1]; 0 mg/kg, 24 h, tissue Blood, dose level Control", "result": 21.3, "unit": "pg"}, {"measurement": "TERMINAL_BW", "setting": "Rattus norvegicus [1]; 100 mg/kg, 3 h, dose level Low", "result": 216.6, "unit": "g"}, {"measurement": "TERMINAL_BW", "setting": "Rattus norvegicus [1]; 100 mg/kg, 6 h, dose level Low", "result": 209.3, "unit": "g"}, {"measurement": "MCH", "setting": "Rattus norvegicus [1]; 100 mg/kg, 6 h, tissue Blood, dose level Low", "result": 21.3, "unit": "pg"}, {"measurement": "TERMINAL_BW", "setting": "Rattus norvegicus [1]; 100 mg/kg, 9 h, dose level Low", "result": 209.2, "unit": "g"}, {"measurement": "MCH", "setting": "Rattus norvegicus [1]; 100 mg/kg, 9 h, tissue Blood, dose level Low", "result": 21.8, "unit": "pg"}, {"measurement": "TERMINAL_BW", "setting": "Rattus norvegicus [1]; 100 mg/kg, 24 h, dose level Low", "result": 224.3, "unit": "g"}, {"measurement": "MCH", "setting": "Rattus norvegicus [1]; 100 mg/kg, 24 h, tissue Blood, dose level Low", "result": 21.8, "unit": "pg"}, {"measurement": "TERMINAL_BW", "setting": "Rattus norvegicus [1]; 300 mg/kg, 3 h, dose level Middle", "result": 216.2, "unit": "g"}, {"measurement": "APTT", "setting": "Rattus norvegicus [1]; 300 mg/kg, 3 h, tissue Blood, dose level Middle", "result": 22.3, "unit": "s"}, {"measurement": "TERMINAL_BW", "setting": "Rattus norvegicus [1]; 300 mg/kg, 6 h, dose level Middle", "result": 206.9, "unit": "g"}, {"measurement": "APTT", "setting": "Rattus norvegicus [1]; 300 mg/kg, 6 h, tissue Blood, dose level Middle", "result": 21.6, "unit": "s"}, {"measurement": "TERMINAL_BW", "setting": "Rattus norvegicus [1]; 300 mg/kg, 9 h, dose level Middle", "result": 207, "unit": "g"}, {"measurement": "TERMINAL_BW", "setting": "Rattus norvegicus [1]; 300 mg/kg, 24 h, dose level Middle", "result": 222.4, "unit": "g"}, {"measurement": "APTT", "setting": "Rattus norvegicus [1]; [9]", "result": 23.2, "unit": "s"}, {"measurement": "MCH", "setting": "Rattus norvegicus [1]; [9]", "result": 21.4, "unit": "pg"}, {"measurement": "TERMINAL_BW", "setting": "Rattus norvegicus [1]; 1000 mg/kg, 3 h, dose level High", "result": 215.5, "unit": "g"}, {"measurement": "TERMINAL_BW", "setting": "Rattus norvegicus [1]; 1000 mg/kg, 6 h, dose level High", "result": 209.3, "unit": "g"}, {"measurement": "TERMINAL_BW", "setting": "Rattus norvegicus [1]; 1000 mg/kg, 9 h, dose level High", "result": 206.9, "unit": "g"}, {"measurement": "MCH", "setting": "Rattus norvegicus [1]; 1000 mg/kg, 9 h, tissue Blood, dose level High", "result": 20.5, "unit": "pg"}, {"measurement": "TERMINAL_BW", "setting": "Rattus norvegicus [1]; 1000 mg/kg, 24 h, dose level High", "result": 229.2, "unit": "g"}, {"measurement": "APTT", "setting": "Rattus norvegicus [1]; [10]", "result": 21.3, "unit": "s"}, {"measurement": "MCH", "setting": "Rattus norvegicus [1]; [10]", "result": 21.1, "unit": "pg"}, {"measurement": "APTT", "setting": "Rattus norvegicus [2]; [7]", "result": 20.9, "unit": "s"}, {"measurement": "MCH", "setting": "Rattus norvegicus [2]; [7]", "result": 20.9, "unit": "pg"}, {"measurement": "APTT", "setting": "Rattus norvegicus [2]; [8]", "result": 23.2, "unit": "s"}, {"measurement": "APTT", "setting": "Rattus norvegicus [2]; 0 mg/kg, […], tissue Blood, dose level Control, time 14 day", "result": 22.9, "unit": "s"}, {"measurement": "APTT", "setting": "Rattus norvegicus [2]; [11]", "result": 24.4, "unit": "s"}, {"measurement": "MCH", "setting": "Rattus norvegicus [2]; [11]", "result": 19.9, "unit": "pg"}, {"measurement": "APTT", "setting": "Rattus norvegicus [2]; 100 mg/kg, 72 h, tissue Blood, dose level Low, time 3 day", "result": 21.6, "unit": "s"}, {"measurement": "APTT", "setting": "Rattus norvegicus [2]; 100 mg/kg, […], tissue Blood, dose level Low, time 7 day", "result": 21.3, "unit": "s"}, {"measurement": "MCH", "setting": "Rattus norvegicus [2]; 100 mg/kg, […], tissue Blood, dose level Low, time 28 day", "result": 19.8, "unit": "pg"}, {"measurement": "APTT", "setting": "Rattus norvegicus [2]; [12]", "result": 21.6, "unit": "s"}, {"measurement": "MCH", "setting": "Rattus norvegicus [2]; [12]", "result": 20.9, "unit": "pg"}, {"measurement": "APTT", "setting": "Rattus norvegicus [2]; [13]", "result": 23.5, "unit": "s"}, {"measurement": "MCH", "setting": "Rattus norvegicus [2]; [13]", "result": 20.2, "unit": "pg"}, {"measurement": "APTT", "setting": "Rattus norvegicus [2]; [14]", "result": 24.4, "unit": "s"}, {"measurement": "MCH", "setting": "Rattus norvegicus [2]; [14]", "result": 19.7, "unit": "pg"}, {"measurement": "MCH", "setting": "Rattus norvegicus [2]; 1000 mg/kg, 72 h, tissue Blood, dose level High, time 3 day", "result": 20.9, "unit": "pg"}, {"measurement": "APTT", "setting": "Rattus norvegicus [2]; [15]", "result": 22.1, "unit": "s"}, {"measurement": "MCH", "setting": "Rattus norvegicus [2]; [15]", "result": 20.4, "unit": "pg"}, {"measurement": "APTT", "setting": "Rattus norvegicus [2]; [16]", "result": 23.8, "unit": "s"}, {"measurement": "MCH", "setting": "Rattus norvegicus [2]; [16]", "result": 19.8, "unit": "pg"}]}
